How the values were obtained:
hsst1 = biological target: T1, hsst1 (Homo sapiens, UniProt P30872); test: Radioligand binding, cloned human sst1 receptor (CHO-K1 membranes); settings: [125I]Tyr11-SRIF, CHO-K1 cell membranes; single values = one binding experiment; read-out: K1 ± SEM hsst1
T1 construct: each containing the entire coding region of the full-length receptors; expressed in transfected cells
Source text: (§1) The genomic clones containing the human somatostatin receptors (hsstr1-5) (Yamada, Y., et al. al., Proc. Natl. Acad. Sci. USA. 1992, 89, 251-255; Yasuda, K., et al., J. Biol. Chem. 1992, 267, 20422-20428; Yamada, Y., et al., Mol. Pharmacol. 1992, 42, 2136-2142; Rohrer, L., et al., Proc. Natl. Acad. Sci. USA. 1993, 90, 4196-4200.), were kindly provided by Dr. Graeme I. Bell (University of Chicago). The hsstr1, hsstr2, hsstr3, hsstr4 and hsstr5 cDNAs were isolated as a 1.5-kb PstI-XmnI fragment, 1.7-kb BamHI-HindIII fragment, 2.0-kb NcoI-HindIII fragment, 1.4-kb NheI-NdeI fragment, and a 1.2-kb HindIII-XbaI fragment, respectively, each containing the entire coding region of the full-length receptors. These fragments were independently subdloned into the corresponding restriction endonuclease sites in the mammalian expression vector pCMV5, downstream from the human cytomegalovirus (CMV) promoter, to produce the expression plasmids pCMV5/hsstr1, pCMV5/hsstr2, pCMV5/hsstr3, pCMV5/hsstr4 and pCMV5/hsstr5. For transfection into CHO-K1 cells, a plasmid, pRSV-neo (American Type Culture Collection, Rockville, Md.), carrying the neomycin mammalian cell selectable marker was added.
(§2) Transfections were performed by the calcium phosphate method. CHO-K1 cells are maintained in α-minimum essential medium (α-MEM; Gibco) supplemented with 10% fetal calf serum and transfected with each of the expression plasmids using calcium phosphate precipitation. Clones that had inherited the expression plasmid were selected in α-MEM supplemented with 500 μg mL^−1 of geneticin (G418; Gibco). Independent CHO-K1 clones were picked by glass-ring cloning and expanded in culture in the selective media. Membranes were prepared from the isolated clones and hsstr expression was initially assessed for binding with [^125I]Tyr^11-SRIF and [^125]IMK-678 (for sstr2).
(§3) Cell membranes of the 5 receptor types were obtained from homogenates (Polytron setting 6, 15 sec) of the corresponding CHO-K1 cells, in ice-cold Tris-HCl (50 mM) and centrifuged (39000 g, 10 min×2), with an intermediate resuspension in fresh buffer. The final pellets are resuspended in Tris-HCl (10 mM) for assay. Aliquots of the membranes are incubated (30 min at 37° C.) with 0.05 nM [^125I]Tyr^11-SRIF (types 1,3,4,5) or [^125I]MK-678 (type 2) in 50 mM HEPES (pH 7.4) containing BSA (10 mg mL^−1); MgCl2 (5 mM), Trasylol (200 kIU mL^−1), bacitracin (0.02 mg mL^−1), and phenylmethanesulfonyl fluoride (0.02 mg mL^−1). The final assay volume is 0.3 mL and incubations are terminated by rapid filtration through GF/C filters pre-soaked in 0.3% poly(ethylenimine) using a Brandel rapid filtration module. Each tube and filter is then washed with aliquots of cold buffer (3×5 mL).
(§4) Specific binding is. defined as the total radioligand bound minus that bound in the presence of 1.0 μM SRIF.

Amino acid sequences for entries named in this document (tags omitted). A change or cut given only in a name is not applied to a line headed by its entry.
UniProt P30872: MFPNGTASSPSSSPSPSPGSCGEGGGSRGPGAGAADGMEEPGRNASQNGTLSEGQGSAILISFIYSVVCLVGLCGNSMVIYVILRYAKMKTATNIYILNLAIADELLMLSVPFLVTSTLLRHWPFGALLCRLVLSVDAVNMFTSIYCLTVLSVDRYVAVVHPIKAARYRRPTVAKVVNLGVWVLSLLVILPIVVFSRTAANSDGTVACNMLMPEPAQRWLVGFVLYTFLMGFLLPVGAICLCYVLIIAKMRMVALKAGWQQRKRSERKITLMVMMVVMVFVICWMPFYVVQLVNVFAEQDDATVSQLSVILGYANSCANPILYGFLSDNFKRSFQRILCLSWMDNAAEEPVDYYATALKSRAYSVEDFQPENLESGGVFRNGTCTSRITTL
UniProt P31391: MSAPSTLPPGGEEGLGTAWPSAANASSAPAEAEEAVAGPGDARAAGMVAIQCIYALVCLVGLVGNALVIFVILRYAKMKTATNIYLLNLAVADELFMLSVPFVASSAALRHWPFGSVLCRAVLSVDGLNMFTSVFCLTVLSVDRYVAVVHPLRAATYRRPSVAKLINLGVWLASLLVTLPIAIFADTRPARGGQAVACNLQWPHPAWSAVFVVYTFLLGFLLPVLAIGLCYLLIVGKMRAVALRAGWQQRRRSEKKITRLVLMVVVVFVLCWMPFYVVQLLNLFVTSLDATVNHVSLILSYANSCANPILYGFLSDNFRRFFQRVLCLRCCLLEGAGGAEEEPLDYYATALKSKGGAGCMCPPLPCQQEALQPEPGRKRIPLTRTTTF
UniProt P35346: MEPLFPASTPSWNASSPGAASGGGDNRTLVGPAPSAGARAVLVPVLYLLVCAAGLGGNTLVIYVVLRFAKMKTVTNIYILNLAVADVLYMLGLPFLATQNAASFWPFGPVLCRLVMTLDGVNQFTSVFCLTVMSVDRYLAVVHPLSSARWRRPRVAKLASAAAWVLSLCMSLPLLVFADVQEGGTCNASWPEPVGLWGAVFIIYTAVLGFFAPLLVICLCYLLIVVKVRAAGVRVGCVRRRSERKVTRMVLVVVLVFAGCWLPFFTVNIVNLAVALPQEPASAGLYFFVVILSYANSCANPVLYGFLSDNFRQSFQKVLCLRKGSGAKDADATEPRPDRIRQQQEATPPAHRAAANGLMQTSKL
UniProt P30874: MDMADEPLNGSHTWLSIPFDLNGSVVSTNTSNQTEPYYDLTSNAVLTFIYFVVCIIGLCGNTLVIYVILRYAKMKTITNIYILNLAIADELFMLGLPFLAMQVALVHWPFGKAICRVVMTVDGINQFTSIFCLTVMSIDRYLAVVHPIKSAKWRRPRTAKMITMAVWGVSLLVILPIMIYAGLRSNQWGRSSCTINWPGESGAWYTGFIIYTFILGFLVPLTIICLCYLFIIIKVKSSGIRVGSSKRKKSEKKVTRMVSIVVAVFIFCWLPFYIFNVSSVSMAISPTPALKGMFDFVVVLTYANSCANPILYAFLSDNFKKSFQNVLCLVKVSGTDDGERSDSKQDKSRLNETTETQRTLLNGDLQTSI
UniProt P32745: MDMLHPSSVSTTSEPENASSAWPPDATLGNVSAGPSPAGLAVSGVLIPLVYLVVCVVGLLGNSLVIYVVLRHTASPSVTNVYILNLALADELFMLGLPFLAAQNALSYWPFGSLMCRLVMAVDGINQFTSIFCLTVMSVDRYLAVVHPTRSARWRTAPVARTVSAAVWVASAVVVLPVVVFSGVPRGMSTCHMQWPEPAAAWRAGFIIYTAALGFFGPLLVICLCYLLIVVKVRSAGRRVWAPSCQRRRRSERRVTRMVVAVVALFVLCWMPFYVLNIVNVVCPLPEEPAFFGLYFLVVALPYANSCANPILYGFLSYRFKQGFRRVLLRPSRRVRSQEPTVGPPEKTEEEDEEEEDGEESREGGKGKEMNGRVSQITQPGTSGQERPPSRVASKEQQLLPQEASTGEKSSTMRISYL

hsst4 = biological target: T2, hsst4 (Homo sapiens, UniProt P31391); test: Radioligand binding, cloned human sst4 receptor (CHO-K1 membranes); settings: [125I]Tyr11-SRIF, CHO-K1 cell membranes; single values = one binding experiment; read-out: K1 ± SEM hsst4
T2 construct: each containing the entire coding region of the full-length receptors; expressed in transfected cells
Source text: as §1, §2, §3, §4

hsst5 = biological target: T3, hsst5 (Homo sapiens, UniProt P35346); test: Radioligand binding, cloned human sst5 receptor (CHO-K1 membranes); settings: [125I]Tyr11-SRIF, CHO-K1 cell membranes; single values = one binding experiment; read-out: K1 ± SEM hsst5
T3 construct: each containing the entire coding region of the full-length receptors; expressed in transfected cells
Source text: as §1, §2
as §3, with “mL). […]” for “mL).”

hsst2 = biological target: T4, hsst2 (Homo sapiens, UniProt P30874); test: Radioligand binding, cloned human sst2 receptor (CHO-K1 membranes); settings: [125I]MK-678, CHO-K1 cell membranes; single values = one binding experiment; read-out: K1 ± SEM hsst2
T4 construct: each containing the entire coding region of the full-length receptors; expressed in transfected cells
Source text: as §1, with “For transfection into CHO-K1 cells, a plasmid, pRSV-neo (American Type Culture Collection, Rockville, Md.), carrying the neomycin mammalian cell selectable marker was added.” left out
(§5) Transfections were performed by the calcium phosphate method. […] Membranes were prepared from the isolated clones and hsstr expression was initially assessed for binding with [^125I]Tyr^11-SRIF and [^125]IMK-678 (for sstr2). […]

hsst3 = biological target: T5, hsst3 (Homo sapiens, UniProt P32745); test: Radioligand binding, cloned human sst3 receptor (CHO-K1 membranes); settings: [125I]Tyr11-SRIF, CHO-K1 cell membranes; single values = one binding experiment; read-out: K1 ± SEM hsst3
T5 construct: each containing the entire coding region of the full-length receptors; expressed in transfected cells
Source text: as §1, with “For transfection into CHO-K1 cells, a plasmid, pRSV-neo (American Type Culture Collection, Rockville, Md.), carrying the neomycin mammalian cell selectable marker was added.” left out
as §5

Structure (SMILES) | Ki (hsst1) [µM] | Ki (hsst4) [µM] | Ki (hsst5) [µM] | Ki (hsst2) [µM] | Ki (hsst3) [µM]
C[C@@H](O)[C@H]1C(=O)N[C@H](C(=O)N[C@@H](Cc2ccc3ccccc3c2)C(N)=O)CSSC[C@@H](NC(=O)[C@@H](N)Cc2ccc(Cl)cc2)C(=O)N[C@@H](Cc2cccnc2)C(=O)N[C@H](Cc2c[nH]c3ccccc23)C(=O)N[C@@H](CCCCN)C(=O)N1C [Peptide 6, Cpa-cyclo(DCys-3-Pal-DTrp-Lys-NMeThr-Cys)-2-Nal-NH2] | – | – | 0.0885 ± 0.0457 | – | –
C[C@@H](O)[C@@H]1NC(=O)[C@H](CCCCN)NC(=O)[C@@H](Cc2c[nH]c3ccccc23)NC(=O)[C@H](Cc2cccnc2)NC(=O)[C@H](NC(=O)[C@@H](N)Cc2ccc(Cl)cc2)CSSC[C@@H](C(=O)N[C@@H](Cc2ccc3ccccc3c2)C(N)=O)N(C)C1=O [Peptide 7, Cpa-cyclo(DCys-3-Pal-DTrp-Lys-Thr-NmeCys)-2-Nal-NH2] | 1 | – | 0.161 ± 0.052 | – | –
C[C@@H](O)[C@@H]1NC(=O)[C@H](CCCCN)NC(=O)[C@@H](Cc2c[nH]c3ccccc23)NC(=O)[C@H](Cc2cccnc2)NC(=O)[C@H](NC(=O)[C@@H](N)Cc2ccc(Cl)cc2)CSSC[C@@H](C(=O)N(C)[C@@H](Cc2ccc3ccccc3c2)C(N)=O)NC1=O [Peptide 8, Cpa-cyclo(DCys-3-Pal-DTrp-Lys-Thr-Cys)-(Nme)-2-Nal-NH2] | 1 | 1 | – | 0.197 ± 0.055 | –
C[C@@H](O)[C@@H]1NC(=O)[C@H](CCCCN)N(C)C(=O)[C@@H](Cc2c[nH]c3ccccc23)NC(=O)[C@H](Cc2cccnc2)NC(=O)[C@H](NC(=O)[C@@H](N)Cc2ccc(Cl)cc2)CSSC[C@@H](C(=O)N[C@H](Cc2c[nH]c3ccccc23)C(N)=O)NC1=O [Peptide 14, Cpa-cyclo(DCys-3-Pal-DTrp-NMeLys-Thr-Cys)-DTrp-NH2] | – | 1 | 0.101 ± 0.0141 | – | –
C[C@@H](O)[C@@H]1NC(=O)[C@H](CCCCN)N(C)C(=O)[C@@H](Cc2c[nH]c3ccccc23)NC(=O)[C@H](Cc2cccnc2)NC(=O)[C@H](NC(=O)[C@@H](N)Cc2ccc3ccccc3c2)CSSC[C@@H](C(=O)N[C@H](Cc2c[nH]c3ccccc23)C(N)=O)NC1=O [Peptide 15, Nal-cyclo(DCys-3-Pal-DTrp-NMeLys-Thr-Cys)-DTrp-NH2] | – | – | – | – | 0.148 ± 0.0132
C[C@@H](O)[C@@H]1NC(=O)[C@H](CCCCN)N(C)C(=O)[C@@H](Cc2c[nH]c3ccccc23)NC(=O)[C@H](Cc2cccnc2)NC(=O)[C@H](NC(=O)[C@@H](N)Cc2cccnc2)CSSC[C@@H](C(=O)N[C@H](Cc2c[nH]c3ccccc23)C(N)=O)NC1=O [Peptide 16, 3-Pal-cyclo(DCys-3-Pal-DTrp-NMeLys-Thr-Cys)-DTrp-NH2] | – | 1 | – | – | –

Second part, the compound after the results:

Ki (hsst1) [µM] | Ki (hsst4) [µM] | Ki (hsst5) [µM] | Ki (hsst2) [µM] | Ki (hsst3) [µM] | Structure (SMILES)
1 | 1 | – | – | – | C[C@@H](O)[C@@H]1NC(=O)[C@H](CCCCN)NC(=O)[C@@H](Cc2c[nH]c3ccccc23)NC(=O)[C@H](Cc2cccnc2)N(C)C(=O)[C@H](NC(=O)[C@@H](N)Cc2ccc(Cl)cc2)CSSC[C@@H](C(=O)N[C@@H](Cc2ccc3ccccc3c2)C(N)=O)NC1=O [Peptide 3, Cpa-cyclo(DCys-Nme3-Pal-DTrp-Lys-Thr-Cys)-2-Nal-NH2]
1 | 1 | – | – | – | C[C@@H](O)[C@@H]1NC(=O)[C@H](CCCCN)NC(=O)[C@@H](Cc2c[nH]c3ccccc23)N(C)C(=O)[C@H](Cc2cccnc2)NC(=O)[C@H](NC(=O)[C@@H](N)Cc2ccc(Cl)cc2)CSSC[C@@H](C(=O)N[C@@H](Cc2ccc3ccccc3c2)C(N)=O)NC1=O [Peptide 4, Cpa-cyclo(DCys-3-Pal-NMeDTrp-Lys-Thr-Cys)-2-Nal-NH2]
1 | 1 | – | – | – | C[C@@H](O)[C@@H]1NC(=O)[C@H](CCCCN)N(C)C(=O)[C@@H](Cc2c[nH]c3ccccc23)NC(=O)[C@H](Cc2cccnc2)NC(=O)[C@H](NC(=O)[C@@H](N)Cc2ccc(Cl)cc2)CSSC[C@@H](C(=O)N[C@@H](Cc2ccc3ccccc3c2)C(N)=O)NC1=O [Peptide 5, Cpa-cyclo(DCys-3-Pal-DTrp-NMeLys-Thr-Cys)-2-Nal-NH2]
1.39 | – | 0.14 ± 0.0046 | – | – | C[C@@H](O)[C@@H]1NC(=O)[C@H](CCCCN)NC(=O)[C@@H](Cc2c[nH]c3ccccc23)NC(=O)[C@H](Cc2cccnc2)NC(=O)[C@H](NC(=O)[C@@H](N)Cc2ccc(Cl)cc2)CSSC[C@@H](C(=O)N[C@@H](Cc2ccc3ccccc3c2)C(N)=O)NC1=O [Peptide 9, Cpa-cyclo(DCys-3-Pal-DTrp-Lys-Thr-Cys)-Nal-NH2]

— patent publication US7408024B2, “Somatostatin antagonists” (The Administrators of the Tulane Educational Fund, priority 2001, dated 2008)
